The source of these data is PubChem BioAssay AID1662 (Broad Institute, 2009).

The list shows a part of the results, in another mix than the full data. Some of these compounds have results that are not shown, active ones among them. Activity calls are given as the source filed them.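 The calls were made as follows: active = mean replicate score, as percent of positive control median, at least 50; inconclusive = mean below 50 but one replicate at or above 50; inactive = mean and every replicate below 50.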

The assay in a line: kanamycin survival loss of SKKanGAS strain – BacTiter-Glo luminescence, streptokinase expression inhibitor project, primary screen (AID 1662).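 Also: strain carries kanamycin resistance gene driven by streptokinase promoter and grows in 40 µg/ml kanamycin; loss of luminescence reflects streptokinase promoter inhibition or plain growth inhibition; 0% = median of DMSO wells and 100% = positive control at its reference dose.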 The following applies: S. pyogenes SKKanGAS, kanamycin growth, 6 h, at 7.5 µM, active compounds read high.
The term inhibition denotes the drop in the measured response relative to a control, in per cent. For the molecule `O=C(NCC1(N2CCCCC2)CCCCC1)c1cccc(Cl)c1`, the inhibition was inactive: 1.85%. The same measure for `COc1cccc(C(=O)NCC2(N3CCCCC3)CCCCC2)c1`: inactive: -0.865%; for `COc1ccc(Cl)cc1C(=O)NCC1(N(C)C)CCCCC1`: inactive: 3.94%. The same measure for `COc1cc(C(=O)NCC2(N(C)C)CCCCC2)c([N+](=O)[O-])cc1OC`: inactive: -1.37%; for `CN(C)C1(CNC(=O)c2ccc(Br)cc2)CCCCC1`: inactive: -1.85%. With `CN(C)c1cccc(C(=O)NCC2(N(C)C)CCCCC2)c1` the figure was inactive: -5.99%; with `CC(C)Oc1ccc(C(=O)NCC2(N(C)C)CCCCC2)cc1`, inactive: -0.52%; with `COc1ccc(Br)c(C(=O)NCC2(N3CCCCC3)CCCCC2)c1`, inactive: -9.82%.

As for `O=C(OC1CN2CCC1CC2)C(CO)(c1ccccc1)c1ccccc1` (centres undefined), the inhibition is inactive: -9.98%. With `Cc1ccc(C(=O)NCC2(N3CCCCC3)CCCCC2)cc1` the figure was inactive: 1.05%. The same measure for `CC(C)N1C(=O)CC2(CCN(CCOC(=O)C(O)(c3ccccc3)c3ccccc3)CC2)C1=O`: inactive: -0.125%; for `CCN(CC)CC(C)C(C)OC(=O)C(O)(c1ccccc1)c1ccccc1` (centres undefined): inactive: 0.796%.

On to `COc1cc(SC)ccc1C(=O)NCC1(N(C)C)CCCCC1`, for which the inhibition is inactive: -4.94%. With `CN1[C@@H]2CC[C@H]1CC(OC(=O)C(O)(c1ccccc1)c1ccccc1)C2` (some centres undefined) the figure was inactive: -3.99%; with `O=C(NCC1(N2CCCCC2)CCCCC1)c1cc([N+](=O)[O-])ccc1Cl`, inactive: 3.29%; with `CCN1CCCC(OC(=O)C2(O)c3ccccc3C=Cc3ccccc32)C1` (centres undefined), inactive: -10.5%. With `Cc1cc(C(=O)NCC2(N3CCCCC3)CCCCC2)ccc1[N+](=O)[O-]` the figure was inactive: -0.341%. With `O=C(NCC1(N2CCCCC2)CCCCC1)c1cccc(Br)c1` the figure was inactive: -2.57%; with `COc1ccc(C(=O)NCC2(N(C)C)CCCCC2)cc1`, inactive: 0.981%.

In the case of `C=CCN1CCN(CCOC(=O)C(O)(c2ccccc2)c2ccccc2)CC1`, the inhibition is inactive: -2.37%. The same measure for `O=C(NCC1(N2CCCCC2)CCCCC1)c1cc(F)c(F)cc1Cl`: inactive: 1.43%; for `Cc1ccccc1C(=O)NCC1(N2CCCCC2)CCCCC1`: inactive: -2.36%; for `CN(C)c1ccc(C(=O)NCC2(N(C)C)CCCCC2)cc1`: inactive: -2.13%.

Turning to `CN(C)C1CCCC1OC(=O)C(O)(c1ccccc1)c1ccccc1` (centres undefined), the inhibition was inactive: 4.85%.
